Values quoted from earlier work in patent publication US6340703B1, “Treatment or prevention of osteoporosis” (Novogen, Inc., priority 1997, dated 2002).

Tested on: estrogen receptors
Settings: relative to 17p-estradiol 100; cited from earlier work

**Q.** For `O=c1c(-c2ccc(O)cc2)coc2cc(O)cc(O)c12` [genistein, reference compound], which relative estrogenicity is on record?
**A.** 1.3
